Screening results from PubChem BioAssay.
A selection: hits, their analogues and other compounds. The true share with any hit is near 0.43%.
GIV Gai3 FP – inhibitors of GIV GBA-motif binding to rat Galpha-i3; P08753; Galpha-i3/FITC-GIV peptide fluorescence polarization, 90 min; stronger effect = lower value; scaled: aluminum fluoride 0%, vehicle 100%; percent of control (FP), % (no concentration beside the values); actives 0.42% (n = 210,000); AID 1224905;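 active means replicate mean at 85% of control or lower, very high polarization wells dropped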;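 further: wells of about 15 µL received 100 nL stock; the first replicate is given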
HCMV NEC inh – inhibitors of HCMV UL50-UL53 interaction, biochemical, HTRF | HCMV UL50-UL53 nuclear egress complex (human cytomegalovirus) | normalized percent inhibition | inhibition, % (concentration not given with the values) | actives 0.15% (n = 190,000) | AID 1918969, 2023; in the data active = inhibition above about 27%, passing the limit was not always enough
An asterisk follows results filed as active; / = no result given.

CC(c1ccccc1)C1C(C#N)=C(N)SC(N)=C1C#N (stereo not drawn)
  GIV Gai3 FP = 107.5 | HCMV NEC inh = -18.0

CC(CC1C(C#N)=C(N)SC(N)=C1C#N)c1ccccc1 (stereo not drawn)
  GIV Gai3 FP = -73.7* | HCMV NEC inh = -7.7

CCc1ccc(NS(=O)(=O)c2cc(-c3nc(C)c(C)s3)sc2C)cc1
  GIV Gai3 FP = 101.1 | HCMV NEC inh = /

CCOC(=O)c1cc2c(cc1C(=O)OCC)[n+](CC)c(/C=C/C=C1N(CC)c3cc(Cl)c(Cl)cc3N1CC)n2CC
  GIV Gai3 FP = 121.5 | HCMV NEC inh = /

CC(=O)OCCCN1/C(=C\C=C\c2n(CCCOC(C)=O)c3cc(Cl)c(Cl)cc3[n+]2C)N(C)c2cc(Cl)c(Cl)cc21
  GIV Gai3 FP = 59.7* | HCMV NEC inh = /

O=C1NC(=O)N(c2ccc(Br)cc2)C(=O)/C1=C/c1ccc(N2CCOCC2)o1
  GIV Gai3 FP = 16.3* | HCMV NEC inh = -112.8

COc1ccc(N2C(=O)NC(=O)/C(=C\c3cc(Br)c(N4CCOCC4)o3)C2=O)cc1
  GIV Gai3 FP = 110.8 | HCMV NEC inh = 0.3

C=CCOc1ccc(NC(=O)c2cccs2)cc1
  GIV Gai3 FP = 107.4 | HCMV NEC inh = 1.1

O=c1c2ccc(NCCO)c3cccc(c32)c2nc3ccccc3n12
  GIV Gai3 FP = -51.6* | HCMV NEC inh = /

O=C(O)c1ccc2c3c1cccc3c(=O)n1c3ccccc3nc21
  GIV Gai3 FP = / | HCMV NEC inh = -57.3

O=C1c2ccccc2C(=O)c2c1oc1c3c(ccc21)OCN(C1CCS(=O)(=O)C1)C3 (stereo not drawn)
  GIV Gai3 FP = / | HCMV NEC inh = -33.8

O=C(C1=NN(c2ccccc2)C2(S1)SC(c1ccc(Br)cc1)(c1ccc(Br)cc1)c1ccccc12)c1ccccc1 (stereo not drawn)
  GIV Gai3 FP = 117.5 | HCMV NEC inh = /

O=C1NC(=Nc2ccc(F)cc2)S/C1=C/c1ccc(N2CCCC2)o1
  GIV Gai3 FP = / | HCMV NEC inh = -21.5

O=C1NC(=Nc2ccc(F)cc2)S/C1=C/c1ccc(N2CCCCCC2)o1
  GIV Gai3 FP = -78.3* | HCMV NEC inh = -28.1

COCCN1C(=O)/C(=C/c2cc(OC)c(O)cc2Br)SC1=S
  GIV Gai3 FP = -61.3* | HCMV NEC inh = -39.3

COc1cc(OC)c(OC)cc1/C=C1/SC(=S)N(CC(=O)O)C1=O
  GIV Gai3 FP = 133.6 | HCMV NEC inh = -50.6

O=c1nc2sc3[nH]c(=O)sc3cc-2s1
  GIV Gai3 FP = -46.7* | HCMV NEC inh = -77.7

O=c1[nH]c2ccc(NS(=O)(=O)c3cnc[nH]3)cc2s1
  GIV Gai3 FP = 99.2 | HCMV NEC inh = -4.1

COC(=O)CN1C(=O)Cc2ccccc2C1=O
  GIV Gai3 FP = 98.4 | HCMV NEC inh = -8.7

O=C(O)CN1C(=O)Cc2ccccc2C1=O
  GIV Gai3 FP = / | HCMV NEC inh = 103.0*

N#CC1=C(N)Oc2c(oc(CO)cc2=O)C12C(=O)Nc1ccccc12 (stereo not drawn)
  GIV Gai3 FP = 108.9 | HCMV NEC inh = -28.4

OCC(O)C(O)C(O)C(O)c1nc2ccccc2[nH]1 (stereo not drawn)
  GIV Gai3 FP = / | HCMV NEC inh = 37.2*

OC(c1ccc(Cl)cc1)C(O)c1nc2ccccc2[nH]1 (stereo not drawn)
  GIV Gai3 FP = / | HCMV NEC inh = -20.3

CC(C)N1CCN(S(=O)(=O)c2ccc(-c3nnc(C4CCC4)o3)o2)CC1
  GIV Gai3 FP = 102.2 | HCMV NEC inh = /

O=C1CSC(c2ccc3c(c2)OCO3)N1 (stereo not drawn)
  GIV Gai3 FP = 104.8 | HCMV NEC inh = -3.0

CC(C)(C)n1nc2c(c1NC(=O)c1ccc(Cl)cc1)CSC2
  GIV Gai3 FP = 102.1 | HCMV NEC inh = /

COc1ccc(-c2nc(Nc3ccc4c(c3)OCCO4)c3ccccc3n2)cc1OC
  GIV Gai3 FP = 100.7 | HCMV NEC inh = 33.6*

COc1ccc(-c2nc(Nc3ccc(OC)c(Cl)c3)c3ccccc3n2)cc1
  GIV Gai3 FP = 111.3 | HCMV NEC inh = 1.4

CC(C)n1nc2c(S(=O)(=O)N3CCCCC3)cccn2c1=O
  GIV Gai3 FP = 104.2 | HCMV NEC inh = /

CC1=NN(c2ccccc2)C(=O)/C1=C\c1ccc(N(C)C)cc1
  GIV Gai3 FP = 105.0 | HCMV NEC inh = -21.3

Complete entries as entered above. Order of values: GIV Gai3 FP | HCMV NEC inh
`O=c1c2ccc(NCCO)c3cccc(c32)c2nc3ccccc3n12` in the list: -51.6* | /
`CCc1ccc(NS(=O)(=O)c2cc(-c3nc(C)c(C)s3)sc2C)cc1` in the list: 101.1 | /
`O=C1NC(=Nc2ccc(F)cc2)S/C1=C/c1ccc(N2CCCC2)o1` in the list: / | -21.5
`O=c1[nH]c2ccc(NS(=O)(=O)c3cnc[nH]3)cc2s1` in the list: 99.2 | -4.1

New compounds follow.
CN1C(=O)C(=Cc2ccc(Oc3ccc([N+](=O)[O-])cc3[N+](=O)[O-])cc2)C(=O)N(C)C1=O
  GIV Gai3 FP = 93.0 | HCMV NEC inh = -63.3

CC1=NN(c2ccccc2)C(=O)/C1=C\c1ccc(Oc2ccc([N+](=O)[O-])cc2[N+](=O)[O-])cc1
  GIV Gai3 FP = 97.0 | HCMV NEC inh = 53.8*

COc1ccc(/C=C2\C(=O)N(c3ccccc3)N=C2C)cc1
  GIV Gai3 FP = 109.3 | HCMV NEC inh = 43.3*

Cc1ccccc1COc1ccc2oc(-c3ccco3)cc(=O)c2c1
  GIV Gai3 FP = 114.9 | HCMV NEC inh = -11.5

CSc1nnc2c(n1)OC1(Nc3ccccc3-2)C(=O)Nc2ccc(Cl)cc21 (stereo not drawn)
  GIV Gai3 FP = 100.0 | HCMV NEC inh = 50.4*

CCSc1nnc2c(n1)OC1(Nc3ccccc3-2)C(=O)Nc2ccc(Br)cc21 (stereo not drawn)
  GIV Gai3 FP = / | HCMV NEC inh = 6.2

O=c1oc2ccccc2nc1/C=C(\O)c1cccs1
  GIV Gai3 FP = -68.8* | HCMV NEC inh = -23.7

O=C(c1ccccc1)c1nc2ccccc2oc1=O
  GIV Gai3 FP = / | HCMV NEC inh = -12.2

CC(C)/C=C1\CC/C(=C\c2ccc(N(C)C)cc2)C1=O
  GIV Gai3 FP = -74.8* | HCMV NEC inh = /

CN(C)c1ccc(/C=C2/CCC/C(=C\c3ccc(N(C)C)cc3)C2=O)cc1
  GIV Gai3 FP = 188.0 | HCMV NEC inh = -15.4

O=C1Cc2ccccc2C(=O)N1
  GIV Gai3 FP = / | HCMV NEC inh = 100.1*

O=C1CC(=O)Nc2ccccc2N1
  GIV Gai3 FP = 100.1 | HCMV NEC inh = -18.3

Cc1ccc(Nc2nc(-c3ccc(C)cc3C)cs2)nc1
  GIV Gai3 FP = 102.3 | HCMV NEC inh = /

COc1ccc(/C=C2\C=C(c3ccccc3)N(c3ccc(C)c(C)c3)C2=O)cc1Br
  GIV Gai3 FP = 63.8* | HCMV NEC inh = /

COc1ccc(/C=C2\C=C(c3ccccc3)N(c3ccccc3)C2=O)cc1Br
  GIV Gai3 FP = 114.9 | HCMV NEC inh = /

O=c1cc(N2CCN(S(=O)(=O)c3ccc(F)c(F)c3)CC2)nc2sc(-c3ccccc3)nn12
  GIV Gai3 FP = 101.9 | HCMV NEC inh = 59.7*

Cc1ccc(S(=O)(=O)N2CCN(c3cc(=O)n4nc(-c5ccccc5)sc4n3)CC2)cc1
  GIV Gai3 FP = 103.7 | HCMV NEC inh = 33.9

COc1cc(C=C2C(=O)N(C)C(=O)N(C)C2=O)ccc1OCCSc1ccc(C)cc1
  GIV Gai3 FP = 108.5 | HCMV NEC inh = 15.1

O=C(COc1ccc(Cl)cc1Cl)NC1CCS(=O)(=O)C1 (stereo not drawn)
  GIV Gai3 FP = 102.8 | HCMV NEC inh = /

COc1cc(=O)n(-c2ccc(C)cc2)nc1C(=O)NC(c1ccccc1)c1ccccc1
  GIV Gai3 FP = 108.1 | HCMV NEC inh = 11.7

CC(=O)n1c(O)c(/C=C2\C=c3ccc(C)cc3=NC2=O)sc1=N
  GIV Gai3 FP = 110.6 | HCMV NEC inh = /

CC(=O)n1c(/C=C2\C=c3ccccc3=NC2=O)c(O)[nH]c1=S
  GIV Gai3 FP = 49.2* | HCMV NEC inh = 14.7

Cc1ccc(S(=O)(=O)Oc2ccc3c(c2)OC(c2ccccc2)CC32CC(C)(C)NC(=S)N2)cc1 (stereo not drawn)
  GIV Gai3 FP = 117.2 | HCMV NEC inh = /

CN1C(=O)/C(=C/C=C2/CCCN2C)N(C)C1=S
  GIV Gai3 FP = 183.0 | HCMV NEC inh = -188.0

C=CCN1C(=O)/C(=C\C=C2/CCCN2C)SC1=S
  GIV Gai3 FP = -61.2* | HCMV NEC inh = -77.5

CCN1/C(=c2/sc(=C3C(=O)c4ccccc4C3=O)n(C)c2=O)C=Cc2ccccc21
  GIV Gai3 FP = 117.0 | HCMV NEC inh = /

CCCCNc1nc(SCC(=O)NC2CCCCC2)nc2ccccc12
  GIV Gai3 FP = 103.7 | HCMV NEC inh = /

CC(NC(=O)c1ccc(=O)n(C)n1)C1CC2CCC1C2 (stereo not drawn)
  GIV Gai3 FP = / | HCMV NEC inh = 11.8

CCOC(=O)C1=NN(c2ccccc2OC)C2C(=O)N(c3ccc(Br)cc3)C(=O)C12 (stereo not drawn)
  GIV Gai3 FP = 107.8 | HCMV NEC inh = -43.6

COc1ccc2ccccc2c1/C=C1\SC(=Nc2ccccc2)N(N(C)C)C1=O
  GIV Gai3 FP = 107.9 | HCMV NEC inh = /

CN(C)N1C(=O)/C(=C/c2cccs2)SC1=Nc1ccccc1
  GIV Gai3 FP = 85.5* | HCMV NEC inh = 2.8

CC(C)(C)c1ccc(C2Oc3ccccc3C3CC(c4ccc(Br)cc4)=NN32)cc1 (stereo not drawn)
  GIV Gai3 FP = 101.6 | HCMV NEC inh = 42.5*

CC(C)c1ccc(C2Oc3ccccc3C3CC(c4ccc(Br)cc4)=NN32)cc1 (stereo not drawn)
  GIV Gai3 FP = 97.9 | HCMV NEC inh = -1.7

COc1cccc(Nc2nnc(-c3cc4ccc(O)cc4oc3=O)s2)c1
  GIV Gai3 FP = -69.2* | HCMV NEC inh = /

O=C(Oc1ccc2cc(-c3ccc(F)cc3)c(=O)oc2c1)c1ccco1
  GIV Gai3 FP = 108.2 | HCMV NEC inh = -16.5

O=C(Oc1ccc2cc(-c3nc4ccccc4s3)c(=O)oc2c1)c1ccco1
  GIV Gai3 FP = -41.9* | HCMV NEC inh = /

COc1ccc(Nc2nnc(-c3cc4c(ccc5ccccc54)oc3=O)s2)cc1
  GIV Gai3 FP = 101.9 | HCMV NEC inh = -24.7

O=c1oc2cc(O)ccc2cc1-c1nnc(NCc2ccccc2)s1
  GIV Gai3 FP = -32.0* | HCMV NEC inh = /

O=c1oc2cc(O)ccc2cc1-c1nc2ccccc2s1
  GIV Gai3 FP = -78.8* | HCMV NEC inh = -60.4
